In ChEMBL document CHEMBL1135296, “Structure-activity relationships for mini atrial natriuretic peptide by proline-scanning mutagenesis and shortening of peptide backbone” (Bioorg Med Chem Lett, 2002):

experiment: Relative biological activity i.e., the ratio of EC50 of compound to EC50 of miniANP(Mini atrial natriuretic peptide) was evaluated; conditions: Cardiac atrium

Going from `CC[C@H](C)[C@@H]1NC(=O)[C@@H](CCCN=C(N)N)NC(=O)[C@H](CC(=O)O)NC(=O)[C@@H](CCSC)NC(=O)[C@H](CCCN=C(N)N)NC(=O)CNC(=O)[C@H](Cc2ccccc2)NC(=O)[C@@H](Cc2c[nH]cn2)NC(=O)[C@@H](NC(=O)[C@@H](N)CCSC)CSSC[C@H](C(=O)N[C@@H](Cc2ccc(O)cc2)C(=O)N[C@@H](CCCN=C(N)N)C(N)=O)NC(=O)[C@@H](CO)NC1=O` to `CC[C@H](C)[C@H]1NC(=O)[C@H](CCCN=C(N)N)NC(=O)[C@@H](CC(=O)O)NC(=O)[C@H](CCSC)NC(=O)[C@@H](CCCN=C(N)N)NC(=O)CCNC(=O)[C@@H](Cc2ccccc2)NC(=O)[C@H](Cc2c[nH]cn2)NC(=O)[C@@H](NC(=O)[C@@H](N)CCSC)CSSC[C@@H](C(=O)N[C@@H](Cc2ccc(O)cc2)C(=O)N[C@@H](CCCN=C(N)N)C(N)=O)NC(=O)[C@H](CO)NC1=O`, the Ratio falls from 316 to 260.

Compared with `CC[C@H](C)[C@@H]1NC(=O)[C@@H](CCCN=C(N)N)NC(=O)[C@H](CC(=O)O)NC(=O)[C@@H](C)NC(=O)[C@H](CCCN=C(N)N)NC(=O)CNC(=O)CNC(=O)[C@@H](Cc2ccccc2)NC(=O)[C@H](Cc2c[nH]cn2)NC(=O)[C@@H](NC(=O)[C@@H](N)CCSC)CSSC[C@H](C(=O)N[C@@H](Cc2ccc(O)cc2)C(=O)N[C@@H](CCCN=C(N)N)C(N)=O)NC(=O)[C@@H](CO)NC1=O`, `CC[C@H](C)[C@H]1NC(=O)[C@H](CCCN=C(N)N)NC(=O)[C@@H](CC(=O)O)NC(=O)[C@@H]2CCCN2C(=O)[C@@H](CCCN=C(N)N)NC(=O)CNC(=O)CNC(=O)[C@@H](Cc2ccccc2)NC(=O)[C@H](Cc2c[nH]cn2)NC(=O)[C@@H](NC(=O)[C@@H](N)CCSC)CSSC[C@@H](C(=O)N[C@@H](Cc2ccc(O)cc2)C(=O)N[C@@H](CCCN=C(N)N)C(N)=O)NC(=O)[C@H](CO)NC1=O` is lower in Ratio: 292 for the first, 96.8 for the second.

Going from `CC[C@H](C)[C@@H]1NC(=O)[C@@H](CCCN=C(N)N)NC(=O)[C@H](CC(=O)O)NC(=O)[C@@H](CCSC)NC(=O)[C@H](CCCN=C(N)N)NC(=O)[C@H]2CCCN2C(=O)CNC(=O)[C@@H](Cc2ccccc2)NC(=O)[C@H](Cc2c[nH]cn2)NC(=O)[C@@H](NC(=O)[C@@H](N)CCSC)CSSC[C@H](C(=O)N[C@@H](Cc2ccc(O)cc2)C(=O)N[C@@H](CCCN=C(N)N)C(N)=O)NC(=O)[C@@H](CO)NC1=O` to `CC[C@H](C)[C@@H]1NC(=O)[C@@H](CCCN=C(N)N)NC(=O)[C@H](CC(=O)O)NC(=O)[C@@H](CCSC)NC(=O)[C@H](CCCN=C(N)N)NC(=O)CNC(=O)[C@@H]2CCCN2C(=O)[C@@H](Cc2ccccc2)NC(=O)[C@H](Cc2c[nH]cn2)NC(=O)[C@@H](NC(=O)[C@@H](N)CCSC)CSSC[C@H](C(=O)N[C@@H](Cc2ccc(O)cc2)C(=O)N[C@@H](CCCN=C(N)N)C(N)=O)NC(=O)[C@@H](CO)NC1=O`, the Ratio rises from 68.7 to 159.

Going from `CC[C@H](C)[C@@H]1NC(=O)[C@@H](CCCN=C(N)N)NC(=O)[C@H](CC(=O)O)NC(=O)[C@@H](CCSC)NC(=O)[C@@H]2CCCN2C(=O)CNC(=O)CNC(=O)[C@@H](Cc2ccccc2)NC(=O)[C@H](Cc2c[nH]cn2)NC(=O)[C@@H](NC(=O)[C@@H](N)CCSC)CSSC[C@H](C(=O)N[C@@H](Cc2ccc(O)cc2)C(=O)N[C@@H](CCCN=C(N)N)C(N)=O)NC(=O)[C@@H](CO)NC1=O` to `CC[C@H](C)[C@@H]1NC(=O)[C@@H](CCCN=C(N)N)NC(=O)[C@@H]2CCCN2C(=O)[C@@H](CCSC)NC(=O)[C@H](CCCN=C(N)N)NC(=O)CNC(=O)CNC(=O)[C@@H](Cc2ccccc2)NC(=O)[C@H](Cc2c[nH]cn2)NC(=O)[C@@H](NC(=O)[C@@H](N)CCSC)CSSC[C@H](C(=O)N[C@@H](Cc2ccc(O)cc2)C(=O)N[C@@H](CCCN=C(N)N)C(N)=O)NC(=O)[C@@H](CO)NC1=O`, the Ratio rises from 7.3 to greater than 10000.

`CC[C@H](C)[C@H]1NC(=O)[C@H](CCCN=C(N)N)NC(=O)[C@@H](CC(=O)O)NC(=O)[C@H](CCSC)NC(=O)[C@@H](CCCN=C(N)N)NC(=O)CCCNC(=O)[C@@H](Cc2ccccc2)NC(=O)[C@H](Cc2c[nH]cn2)NC(=O)[C@@H](NC(=O)[C@@H](N)CCSC)CSSC[C@@H](C(=O)N[C@@H](Cc2ccc(O)cc2)C(=O)N[C@@H](CCN=C(N)N)C(N)=O)NC(=O)[C@H](CO)NC1=O` showed a Ratio of 12.2.
